{"sequences": {"note": "Chains of the proteins cited; added tags and fusions are not shown.", "UniProt P70627, whole entry": "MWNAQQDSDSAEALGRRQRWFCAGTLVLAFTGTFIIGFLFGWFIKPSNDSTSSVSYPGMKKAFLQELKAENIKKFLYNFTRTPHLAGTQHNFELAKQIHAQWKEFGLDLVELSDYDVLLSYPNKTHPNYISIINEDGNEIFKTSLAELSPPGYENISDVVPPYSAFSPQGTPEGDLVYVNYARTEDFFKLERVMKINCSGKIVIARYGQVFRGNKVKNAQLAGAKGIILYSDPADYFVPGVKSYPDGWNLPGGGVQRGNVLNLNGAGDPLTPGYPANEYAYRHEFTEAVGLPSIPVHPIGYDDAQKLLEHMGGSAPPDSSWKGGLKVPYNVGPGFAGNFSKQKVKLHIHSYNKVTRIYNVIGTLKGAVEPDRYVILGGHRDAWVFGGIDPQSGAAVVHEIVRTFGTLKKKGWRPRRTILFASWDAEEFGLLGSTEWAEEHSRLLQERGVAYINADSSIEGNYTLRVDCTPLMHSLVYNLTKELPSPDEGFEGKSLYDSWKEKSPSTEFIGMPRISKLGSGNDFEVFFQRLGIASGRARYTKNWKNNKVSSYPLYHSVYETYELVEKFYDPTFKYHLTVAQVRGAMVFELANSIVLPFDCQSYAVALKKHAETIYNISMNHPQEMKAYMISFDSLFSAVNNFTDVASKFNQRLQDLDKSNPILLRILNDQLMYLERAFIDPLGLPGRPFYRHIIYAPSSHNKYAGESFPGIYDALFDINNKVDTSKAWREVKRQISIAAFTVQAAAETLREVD"}, "source": "patent US7381745B2", "about": "“Ligands for metabotropic glutamate receptors and inhibitors of NAALADase” (Georgetown University, priority 1999, dated 2008)", "target": "T1, rat GCPII (Rattus norvegicus, UniProt P70627)", "T1 construct": "expressed in transfected cells", "experiment": "Inhibition of rat GCPII stably expressed in CHO cells", "assay_type": "biochemical", "conditions": "read-out: inhibition of expressed rat GCPII", "data": [{"smiles": "O=C(O)CC[C@@H](NC(=O)N[C@H](CCC(=O)O)C(=O)O)C(=O)O", "note": "[FN13]", "values": [{"measurement": "inhibition at 100 µM", "result": 67, "unit": "%"}]}]}
